## Ab-14 heavy chain CDR variants: yeast mating affinities

Binding partner: SARS-CoV-2 spike HR2 peptide, sequence PDVDLGDISGINAS.

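The parent was found by panning a naive human phage display library on the peptide. The library (AAYL49) carries one to three amino acid substitutions per variant, with no insertions or deletions. The assay is AlphaSeq: two haploid yeast populations carry antibody and antigen on their surface. After mating in shaken culture at 30 °C for 16 h, diploids were selected and their barcode pairs sequenced. Scores were corrected for input abundance and mapped to Kd with protein pairs of known affinity run in the same pool. The assay was run in three technical replicates.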

Each scFv is VH, three GGGGS repeats, VL, as in the parent Ab-14, and differs from it in the CDRs of the heavy chain only.
VH: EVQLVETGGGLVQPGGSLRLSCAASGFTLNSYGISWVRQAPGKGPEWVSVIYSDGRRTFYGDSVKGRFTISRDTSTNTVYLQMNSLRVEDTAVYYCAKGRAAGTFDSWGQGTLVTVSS
VL: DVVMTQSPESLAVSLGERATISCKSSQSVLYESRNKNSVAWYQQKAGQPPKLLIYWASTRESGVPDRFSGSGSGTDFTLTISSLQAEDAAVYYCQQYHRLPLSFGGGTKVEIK

The parent's heavy chain CDRs are GFTLNSYGIS, VIYSDGRRTFYGDSVK, GRAAGTFDS; each variant's own CDRs replace them letter for letter.
Affinities are written as log10 Kd with Kd in nM; a lower number is a better binder.
Averages over replicates are reported, and they cover detected replicates only.
Where no diploid with the target was found in any replicate, the entry reads "nd": below detection, most likely a poor binder, though not proof of it.
Nonspecific signal, from three strains lacking the peptide, appeared in 15% of pairings of library AAYL49, centred on 4.06 (5% of these signals below 2.83); values are not corrected for it.

| CDR-H1 | CDR-H2 | CDR-H3 | mean log10 Kd (nM) | replicates with signal |
|---|---|---|---|---|
| DFTLNSYGIE | VIYSDGRRTFYGDSVK | GNAAGTFDS | nd | 0 of 3 |
| GFTLNSYGIS | VIYSDGRRTFYGDSVK | PRAAGTCWS | 2.65 | 3 of 3 |
| GFTLNSYGIS | VIDSDGNRTFYGDSVK | GCAAGTFDS | nd | 0 of 3 |
| GFQLKSYGYS | VIYSDGRRTFYGDSVK | GRAAGTFDS | nd | 0 of 3 |
| GFLLNSYGIS | VIYSDGRRTDYGDSVK | GRAAGTTDS | 2.84 | 3 of 3 |
| GHTLQSYGIS | VIYSDGRRTFYGDAVK | GRAAGTFDS | 1.94 | 3 of 3 |
| GFTLNSYGII | VIYSDGRRTFYGDSVK | GRIEGTFDS | 3.57 | 1 of 3 |
| GFNLNSYGIS | EIYSDGRRTFYGDSVK | SRAAGTFDS | nd | 0 of 3 |
| GFTYNSYGIS | VIYSDGRRTFYIDSVK | GPAAGTFDS | nd | 0 of 3 |
| GFTLNSYGIS | VIYSDGRRTFYGDYVK | GRAAGTFWS | nd | 0 of 3 |
| GQTLNSYGIS | DIYSDGRRTFYGDSVK | GRAAGTEDS | nd | 0 of 3 |
| GFTLNSYGIS | VIQSDGRRTFYGDSVE | GRAAGTFDS | 5.20 | 2 of 3 |
| GFTLNSYGIS | VEYSDGRRTFYGDSVK | GRAAGTGDS | 3.99 | 3 of 3 |
| GFTLNSYGIS | VIYSDGRRAYYGDSVK | RRAAGTFDS | nd | 0 of 3 |
| GFTLNHYGIS | VRYSDGRRTFYGDSVK | GRAAGQFDS | 3.72 | 1 of 3 |
| GFTLNSYKIS | VIYSQGRRTFYGDSVK | GEAAGTFDS | 3.90 | 2 of 3 |
| GVTLNSYGIS | VISSDGRRTFYGDSAK | GRAAGTFDS | nd | 0 of 3 |
| GFTLNSYGIS | VIYSDGRRQSYGDSVK | GREAGTFDS | 2.33 | 3 of 3 |
| GFTLNSYGIS | VIYSDGRITFTDDSVK | GRAAGTFDS | nd | 0 of 3 |
| GFILNYYGIS | VIYSDGRRTFYGDSVK | GRAAGLFDS | nd | 0 of 3 |
| GFTLNKYGIS | VIYSDGRRTFYGDTVK | GRAAGTFDG | 1.90 | 3 of 3 |
| GFTLNSYGIP | VIYSDGRRTFYGDSVK | GRAAFTQDS | nd | 0 of 3 |
| GFTLFSYGIS | VIYSDGRRTFYGDSVK | GRAAGFLDS | nd | 0 of 3 |
| GFTLNSYLIS | VIYSDGRRTFYGDSVK | FRAAGTFIS | nd | 0 of 3 |
| GFTLNSYGIS | VIYSDGRCTFYGAAVK | GRAAGTFDS | 4.90 | 1 of 3 |
| GFTLNSYGIS | VIYSDGERTFYGDRVK | GRAAGTEDS | 1.19 | 3 of 3 |
| GFTLNSYGIS | VIYSDGARTFYIDSVK | GRAAGTFDS | 0.85 | 3 of 3 |
| GFTANSYGIS | VIYSDGRRTFYGDKFK | GRAAGTFDS | 2.68 | 3 of 3 |
| GFRLNTYGIS | VIYSDGRREFYGDSVK | GRAAGTFDS | 4.60 | 1 of 3 |
| GFTLESYGIS | VIYSDGRRTFYGDSVK | GMDAGTFDS | 2.56 | 3 of 3 |
| GPTLNSYGIS | VIYSDGRQTFYGDSVK | GRAAGTFDS | 4.13 | 2 of 3 |
| GFTLNSYWIS | VIYSDGRSTFYGDSPK | GRAAGTFDS | nd | 0 of 3 |
| GFTLNSRGIS | VIYSFGRRTFYGDHVK | GRAAGTFDS | 3.57 | 1 of 3 |
| IFTLNSYGIV | VIYSDGRRTFYGDSVK | GQAAGTFDS | 3.53 | 1 of 3 |
| GFTLNYYGIS | HIYSDGFRTFYGDSVK | GRAAGTFDS | 4.30 | 1 of 3 |
| GFTGWSYGIS | VIASDGRRTFYGDSVK | GRAAGTFDS | nd | 0 of 3 |
| GFTLNNYGIS | VIYSDGQRTFYGDSVK | GRAAGTFAS | 0.97 | 3 of 3 |
| GFTKNTYGIS | VIYSDGRRTWYGDSVK | GRAAGTFDS | 4.35 | 2 of 3 |
| GITLNSYGIS | VNYSDGRRTFYGDSVK | GRAAGNFDS | 5.54 | 1 of 3 |
| GFRLNSYGIS | VIPSDGRRTFYGDSVK | GEAAGTFDS | 3.84 | 1 of 3 |
| GTTLNSYGIS | VIYSDGRRTFYGDSVK | GRALGTFDS | nd | 0 of 3 |
| GFTLNSYGIS | VIYADGRRTFDGDSVK | GRAAGTFDQ | 2.05 | 2 of 3 |
| GFTLNSYGIS | VIYSDGRRTFYGDSVK | NRAAGTFKS | 1.43 | 3 of 3 |
| GFTLNSYGIS | VIYSDTRRTFAGDSVK | GRAAGTFDF | 5.15 | 1 of 3 |
| GFTLNSYGNS | VIYSDGRRTFYGDMVK | GRAAGTFHS | 4.94 | 3 of 3 |
| GFTLNSYGIS | VIYSDGRIFAYGDSVK | GRAAGTFDS | nd | 0 of 3 |
| GFTCNSYGIS | VIYSMGRRTFYGDSVK | GRAAGTFDS | nd | 0 of 3 |
| GFALLSYGIS | VIYSDGRRTFYGPSVK | GRAAGTFDS | nd | 0 of 3 |
| GFTLNSYGIS | VIYSDARRTFYGDSVK | GRSAGTFRS | nd | 0 of 3 |
| WPTLNSYGIS | VINSDGRRTFYGDSVK | GRAAGTFDS | nd | 0 of 3 |
| GFTLNHYLIS | VIYSDGRRTFYGDSVK | GRAAGTFDW | 4.75 | 1 of 3 |
| GFTLNSYGKS | VIYSDGRRTFYGDSVK | GRMAGLFDS | 4.60 | 1 of 3 |
| HFTLNSYIIS | VIYSDCRRTFYGDSVK | GRAAGTFDS | 6.50 | 1 of 3 |
| GFTLNSYGIS | FCYSDGRRTPYGDSVK | GRAAGTFDS | 5.90 | 1 of 3 |
| GFTLNSYGRS | VIYSDGRRTFYGDSVH | GRAAGTIDS | nd | 0 of 3 |
| GFTLNSYGIS | VIYQDNRRTFYGDSVK | GRAQGTFDS | 3.73 | 2 of 3 |
| GNTLYSYGIS | VIYSDGRRTFYGFSVK | GRAAGTFDS | nd | 0 of 3 |
| KFTLNSYGIS | VIYSDGRRTFYGDSVH | GRAAGTFLS | 4.93 | 1 of 3 |
| GFTLNSYDIS | VIYSDGRRTFYGFSVK | GRAAGTFDS | nd | 0 of 3 |
| GFTLNSYGIS | AIYSDGRRTFYGDSVK | GRAAGTADS | 3.83 | 1 of 3 |
| GFTLNSRGIS | VEYSKGRRTFYGDSVK | GRAAGTFDS | 4.64 | 2 of 3 |
| GFTYNSYGIS | VIYSDGRRTFYGESVK | KRAAGTFDS | nd | 0 of 3 |

From the AlphaSeq antibody data of Engelhart et al. 2022 (doi:10.1038/s41597-022-01779-4), copy in the FLAb collection.